Laboratory results as given in PubChem BioAssay (NCI).
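The compound was tested at five concentrations on cells cultured in 96-well plates, with a 48-hour exposure period. Abbreviation: GI50, concentration required for 50% inhibition of growth. TGI is the concentration that stops growth completely.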

Columns and labels:
Assay in all cases: DTP human tumour cell line panel, 48 h
HS 578T breast = test system: HS 578T breast
OVCAR-8 ovarian = test system: OVCAR-8 ovarian
CAKI-1 renal = test system: CAKI-1 renal
MDA-MB-231 breast = test system: MDA-MB-231 breast
786-0 renal = test system: 786-0 renal
UACC-257 melanoma = test system: UACC-257 melanoma
NCI/ADR-RES ovarian = test system: NCI/ADR-RES ovarian
HCT-116 colon = test system: HCT-116 colon
SF-295 CNS = test system: SF-295 CNS
MOLT-4 leukemia = test system: MOLT-4 leukemia
SK-MEL-5 melanoma = test system: SK-MEL-5 melanoma
KM12 colon = test system: KM12 colon
HOP-92 NSCLC = test system: HOP-92 NSCLC
HCC-2998 colon = test system: HCC-2998 colon
SNB-75 CNS = test system: SNB-75 CNS
IGROV1 ovarian = test system: IGROV1 ovarian
SN12C renal = test system: SN12C renal
LOX IMVI melanoma = test system: LOX IMVI melanoma
COLO 205 colon = test system: COLO 205 colon
NCI-H226 lung = test system: NCI-H226 lung
UACC-62 melanoma = test system: UACC-62 melanoma
SK-MEL-2 melanoma = test system: SK-MEL-2 melanoma
EKVX NSCLC = test system: EKVX NSCLC
CCRF-CEM leukemia = test system: CCRF-CEM leukemia
PC-3 prostate = test system: PC-3 prostate
NCI-H23 lung = test system: NCI-H23 lung
SW-620 colon = test system: SW-620 colon
OVCAR-4 ovarian = test system: OVCAR-4 ovarian
SF-268 CNS = test system: SF-268 CNS
MALME-3M melanoma = test system: MALME-3M melanoma
MDA-MB-435 = test system: MDA-MB-435
A549 NSCLC = test system: A549 NSCLC
UO-31 renal = test system: UO-31 renal
MCF7 breast = test system: MCF7 breast
SR leukemia = test system: SR leukemia
HT29 colon = test system: HT29 colon
U251 CNS = test system: U251 CNS
NCI-H460 lung = test system: NCI-H460 lung
SNB-19 CNS = test system: SNB-19 CNS
HCT-15 colon = test system: HCT-15 colon
NCI-H322M lung = test system: NCI-H322M lung
T-47D breast = test system: T-47D breast
TK-10 renal = test system: TK-10 renal
RXF 393 renal = test system: RXF 393 renal
HOP-62 NSCLC = test system: HOP-62 NSCLC
SK-MEL-28 melanoma = test system: SK-MEL-28 melanoma
BT-549 breast = test system: BT-549 breast
ACHN renal = test system: ACHN renal
MDA-N = test system: MDA-N
DU-145 prostate = test system: DU-145 prostate

CCOP(OCC)c1cn(CCCCOC(C)=O)nn1
GI50 (HS 578T breast): > 100 µM
TGI (HS 578T breast): > 100 µM
GI50 (OVCAR-8 ovarian): > 100 µM
TGI (OVCAR-8 ovarian): > 100 µM
GI50 (CAKI-1 renal): > 100 µM
TGI (CAKI-1 renal): > 100 µM
GI50 (MDA-MB-231 breast): > 100 µM
TGI (MDA-MB-231 breast): > 100 µM
GI50 (786-0 renal): > 100 µM
TGI (786-0 renal): > 100 µM
GI50 (UACC-257 melanoma): > 100 µM
TGI (UACC-257 melanoma): > 100 µM
GI50 (NCI/ADR-RES ovarian): > 100 µM
TGI (NCI/ADR-RES ovarian): > 100 µM
GI50 (HCT-116 colon): > 100 µM
TGI (HCT-116 colon): > 100 µM
GI50 (SF-295 CNS): > 100 µM
TGI (SF-295 CNS): > 100 µM
GI50 (MOLT-4 leukemia): > 100 µM
TGI (MOLT-4 leukemia): > 100 µM
GI50 (SK-MEL-5 melanoma): > 100 µM
TGI (SK-MEL-5 melanoma): > 100 µM
GI50 (KM12 colon): > 100 µM
TGI (KM12 colon): > 100 µM
GI50 (HOP-92 NSCLC): > 100 µM
TGI (HOP-92 NSCLC): > 100 µM
GI50 (HCC-2998 colon): > 100 µM
TGI (HCC-2998 colon): > 100 µM
GI50 (SNB-75 CNS): > 100 µM
TGI (SNB-75 CNS): > 100 µM
GI50 (IGROV1 ovarian): > 100 µM
TGI (IGROV1 ovarian): > 100 µM
GI50 (SN12C renal): > 100 µM
TGI (SN12C renal): > 100 µM
GI50 (LOX IMVI melanoma): > 100 µM
TGI (LOX IMVI melanoma): > 100 µM
GI50 (COLO 205 colon): > 100 µM
TGI (COLO 205 colon): > 100 µM
GI50 (NCI-H226 lung): > 100 µM
TGI (NCI-H226 lung): > 100 µM
GI50 (UACC-62 melanoma): > 100 µM
TGI (UACC-62 melanoma): > 100 µM
GI50 (SK-MEL-2 melanoma): > 100 µM
TGI (SK-MEL-2 melanoma): > 100 µM
GI50 (EKVX NSCLC): > 100 µM
TGI (EKVX NSCLC): > 100 µM
GI50 (CCRF-CEM leukemia): > 100 µM
TGI (CCRF-CEM leukemia): > 100 µM
GI50 (PC-3 prostate): > 100 µM
TGI (PC-3 prostate): > 100 µM
GI50 (NCI-H23 lung): > 100 µM
TGI (NCI-H23 lung): > 100 µM
GI50 (SW-620 colon): > 100 µM
TGI (SW-620 colon): > 100 µM
GI50 (OVCAR-4 ovarian): > 100 µM
TGI (OVCAR-4 ovarian): > 100 µM
GI50 (SF-268 CNS): > 100 µM
TGI (SF-268 CNS): > 100 µM
GI50 (MALME-3M melanoma): > 100 µM
TGI (MALME-3M melanoma): > 100 µM
GI50 (MDA-MB-435): > 100 µM
TGI (MDA-MB-435): > 100 µM
GI50 (A549 NSCLC): > 100 µM
TGI (A549 NSCLC): > 100 µM
GI50 (UO-31 renal): > 100 µM
TGI (UO-31 renal): > 100 µM
GI50 (MCF7 breast): > 100 µM
TGI (MCF7 breast): > 100 µM
GI50 (SR leukemia): > 100 µM
TGI (SR leukemia): > 100 µM
GI50 (HT29 colon): > 100 µM
TGI (HT29 colon): > 100 µM
GI50 (U251 CNS): > 100 µM
TGI (U251 CNS): > 100 µM
GI50 (NCI-H460 lung): > 100 µM
TGI (NCI-H460 lung): > 100 µM
GI50 (SNB-19 CNS): > 100 µM
TGI (SNB-19 CNS): > 100 µM
GI50 (HCT-15 colon): > 100 µM
TGI (HCT-15 colon): > 100 µM
GI50 (NCI-H322M lung): > 100 µM
TGI (NCI-H322M lung): > 100 µM
GI50 (T-47D breast): > 100 µM
TGI (T-47D breast): > 100 µM
GI50 (TK-10 renal): > 100 µM
TGI (TK-10 renal): > 100 µM
GI50 (RXF 393 renal): > 100 µM
TGI (RXF 393 renal): > 100 µM
GI50 (HOP-62 NSCLC): > 100 µM
TGI (HOP-62 NSCLC): > 100 µM
GI50 (SK-MEL-28 melanoma): > 100 µM
TGI (SK-MEL-28 melanoma): > 100 µM
GI50 (BT-549 breast): > 100 µM
TGI (BT-549 breast): > 100 µM
GI50 (ACHN renal): > 100 µM
TGI (ACHN renal): > 100 µM
GI50 (MDA-N): > 100 µM
TGI (MDA-N): > 100 µM
GI50 (DU-145 prostate): > 100 µM
TGI (DU-145 prostate): > 100 µM
